pIC50: −log10 of the molar value.
These compounds were tested against purified recombinant human sAC protein (Homo sapiens, UniProt Q96PN6) (assay: biochemical). Details: 1 mM ATP, 2 mM CaCl2, 4 mM MgCl2, 40 mM NaHCO3.
Format: biochemical
Method: Assays for sAC activity using purified protein were performed in 100 μl reactions containing 4 mM MgCl2, 2 mM CaCl2, 1 mM ATP, 40 mM NaHCO3, 50 mM Tris pH 7.5, and 3 mM DTT. Each reaction contained ˜1,000,000 counts of α-^32P labeled ATP.
All in vitro adenylyl cyclase activity assays were performed via the “two-column” method measuring the conversion of [α-^32P] ATP into [^32P] cAMP, as previously described [References 81, 82]. Briefly, human sACt protein [Reference 21] was incubated in buffer containing 50 mM Tris-HCl, pH 7.5, 4 mM MgCl2, 2 mM CaCl2, 1 mM ATP, 3 mM DTT, 40 mM NaHCO3 in the presence of the indicated concentrations of different sAC inhibitors or vehicle (DMSO).

Sequences of proteins named here, by UniProt entry; tags and fusion partners are left off. A change or cut given only in a name is not applied to a line headed by its entry.
UniProt Q96PN6: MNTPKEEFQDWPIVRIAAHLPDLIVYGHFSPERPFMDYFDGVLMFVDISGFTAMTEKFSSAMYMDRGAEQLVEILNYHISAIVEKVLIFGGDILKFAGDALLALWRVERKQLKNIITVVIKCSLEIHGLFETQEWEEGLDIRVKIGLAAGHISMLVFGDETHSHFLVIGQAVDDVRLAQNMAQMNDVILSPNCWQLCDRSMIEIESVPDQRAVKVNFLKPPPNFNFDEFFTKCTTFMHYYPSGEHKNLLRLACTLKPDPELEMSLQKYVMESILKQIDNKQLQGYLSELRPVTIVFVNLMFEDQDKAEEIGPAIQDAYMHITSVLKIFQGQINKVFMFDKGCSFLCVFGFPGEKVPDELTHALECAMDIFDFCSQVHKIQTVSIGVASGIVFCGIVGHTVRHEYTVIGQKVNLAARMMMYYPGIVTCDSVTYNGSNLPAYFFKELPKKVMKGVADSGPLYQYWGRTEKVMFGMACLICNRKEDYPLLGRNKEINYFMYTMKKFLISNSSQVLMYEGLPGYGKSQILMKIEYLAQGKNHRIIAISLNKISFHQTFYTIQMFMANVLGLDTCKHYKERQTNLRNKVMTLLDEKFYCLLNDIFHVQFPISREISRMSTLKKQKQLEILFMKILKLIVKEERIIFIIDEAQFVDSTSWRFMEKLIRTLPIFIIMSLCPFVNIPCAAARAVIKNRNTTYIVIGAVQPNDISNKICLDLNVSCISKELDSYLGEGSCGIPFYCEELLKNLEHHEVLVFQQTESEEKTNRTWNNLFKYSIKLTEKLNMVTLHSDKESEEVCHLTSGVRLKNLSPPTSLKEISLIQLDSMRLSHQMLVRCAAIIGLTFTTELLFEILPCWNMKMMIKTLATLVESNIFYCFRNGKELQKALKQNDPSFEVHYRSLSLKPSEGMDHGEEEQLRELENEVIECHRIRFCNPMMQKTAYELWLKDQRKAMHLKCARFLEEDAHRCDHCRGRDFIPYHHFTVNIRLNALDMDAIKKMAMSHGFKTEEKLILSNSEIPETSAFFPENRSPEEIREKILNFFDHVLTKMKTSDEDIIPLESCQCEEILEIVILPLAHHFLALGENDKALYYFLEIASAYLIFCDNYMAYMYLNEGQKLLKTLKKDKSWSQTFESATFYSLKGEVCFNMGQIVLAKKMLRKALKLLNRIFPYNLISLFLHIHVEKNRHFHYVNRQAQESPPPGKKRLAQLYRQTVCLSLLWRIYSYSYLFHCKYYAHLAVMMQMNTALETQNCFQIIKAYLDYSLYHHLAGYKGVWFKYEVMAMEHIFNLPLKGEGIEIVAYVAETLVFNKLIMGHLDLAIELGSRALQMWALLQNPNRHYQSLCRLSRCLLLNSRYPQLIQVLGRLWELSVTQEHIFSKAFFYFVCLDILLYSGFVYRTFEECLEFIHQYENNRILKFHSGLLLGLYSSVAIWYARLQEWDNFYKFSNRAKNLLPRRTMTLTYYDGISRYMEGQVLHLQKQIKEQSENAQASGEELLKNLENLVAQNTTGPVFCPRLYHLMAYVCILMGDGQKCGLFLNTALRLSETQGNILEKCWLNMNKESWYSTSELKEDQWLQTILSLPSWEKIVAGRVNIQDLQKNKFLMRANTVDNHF

| pIC50 | Compound |
| --- | --- |
| 6.26 | Cn1cc(Cc2ccccc2)c(-c2cc(Cl)nc(N)n2)n1 [Example 4] |
| 7.00 | Cn1cc(Cc2ccccc2Oc2ccccc2)c(-c2cc(Cl)nc(N)n2)n1 [Example 9] |
| 6.54 | COc1cccc(Cc2cn(C)nc2-c2cc(Cl)nc(N)n2)c1 [Example 25] |
| 7.30 | Cn1cc(Cc2cccc3ccccc23)c(-c2cc(Cl)nc(N)n2)n1 [Example 30] |
| 6.60 | Cn1cc(Cc2cccc3cnn(C)c23)c(-c2cc(Cl)nc(N)n2)n1 [Example 31] |
| ~6.00 | CN1CCN(C(=O)c2c(Cc3ccccc3)c(-c3cc(Cl)nc(N)n3)nn2C)CC1 [Example 36] |
| 8.33 | Cn1nc(-c2cc(Cl)nc(N)n2)c(Cc2ccccc2)c1C(=O)OCCN1CCOCC1 [Example 38] |
| 7.66 | COC(=O)c1ccccc1Cc1cn(C)nc1-c1cc(Cl)nc(N)n1 [Example 46] |
| 7.15 | COC(=O)c1cccc(Cc2cn(C)nc2-c2cc(Cl)nc(N)n2)c1 [Example 47] |
| 8.00 | Cn1cc(Cc2ccccc2C(=O)OCc2ccccc2)c(-c2cc(Cl)nc(N)n2)n1 [Example 48] |
| 6.64 | Cn1cc(Cc2ccccc2C(=O)NCc2ccccc2)c(-c2cc(Cl)nc(N)n2)n1 [Example 49, 2-[[3-(2-amino-6-chloro-pyrimidin-4-yl)-1-methyl-pyrazol-4-yl]methyl]-N-benzyl-benzamide] |
| 6.91 | CN1CCN(CCOC(=O)c2ccccc2Cc2cn(C)nc2-c2cc(Cl)nc(N)n2)CC1 [Example 53] |
| 7.03 | CN(C)CCCOC(=O)c1ccccc1Cc1cn(C)nc1-c1cc(Cl)nc(N)n1 [Example 54] |
| 7.96 | Cn1cc(Cc2ccccc2C(=O)OCc2ccc(CN)cc2)c(-c2cc(Cl)nc(N)n2)n1 [Example 55] |
| 7.10 | CN1CCC(OC(=O)c2ccccc2Cc2cn(C)nc2-c2cc(Cl)nc(N)n2)CC1 [Example 57] |
| 6.48 | CN1CCC(OC(=O)c2cccc(Cc3cn(C)nc3-c3cc(Cl)nc(N)n3)c2)CC1 [Example 58] |
| 6.87 | Cn1cc(Cc2cccc(C(=O)OCc3nccn3C)c2)c(-c2cc(Cl)nc(N)n2)n1 [Example 59] |
| 6.80 | CN1CCC(COC(=O)c2cccc(Cc3cn(C)nc3-c3cc(Cl)nc(N)n3)c2)CC1 [Example 60] |

| pIC50 | Compound |
| --- | --- |
| 6.41 | CN1CCCC1COC(=O)c1cccc(Cc2cn(C)nc2-c2cc(Cl)nc(N)n2)c1 (stereo not drawn) [Example 61] |
| 7.28 | CN1CCC(COC(=O)c2ccccc2Cc2cn(C)nc2-c2cc(Cl)nc(N)n2)C1 (stereo not drawn) [Example 62] |
| ~6.00 | COCCNC(=O)c1cccc(Cc2cn(C)nc2-c2cc(Cl)nc(N)n2)c1 [Example 64] |
| 8.00 | CN1CCC(COC(=O)c2c(Cc3ccccc3)c(-c3cc(Cl)nc(N)n3)nn2C)CC1 [Example 65] |
| 8.38 | Cn1cc(Cc2ccccc2OCCN2CCOCC2)c(-c2cc(Cl)nc(N)n2)n1 [Example 69, 4-chloro-6-[1-methyl-4-[[2-(2-morpholinoethoxy)phenyl]methyl]pyrazol-3-yl]pyrimidin-2-amine] |
| 7.64 | CN1CCN(CCOC(=O)c2ccccc2Cc2cn(C(F)F)nc2-c2cc(Cl)nc(N)n2)CC1 [Example 75, 2-(4-methylpiperazin-1-yl)ethyl 2-[[3-(2-amino-6-chloro-pyrimidin-4-yl)-1-(difluoromethyl)pyrazol-4-yl]methyl]benzoate] |
| 8.70 | Nc1nc(Cl)cc(-c2nn(C(F)F)cc2Cc2ccccc2OCCN2CCNC(=O)C2)n1 [Example 76, 4-[2-[2-[[3-(2-amino-6-chloro-pyrimidin-4-yl)-1-(difluoromethyl)pyrazol-4-yl]methyl]phenoxy]ethyl]piperazin-2-one] |
| 8.62 | CC1(O)CCN(CCOc2ccccc2Cc2cn(C(F)F)nc2-c2cc(Cl)nc(N)n2)CC1 [Example 77] |
| 8.52 | Nc1nc(Cl)cc(-c2nn(C(F)F)cc2Cc2ccccc2OCCN2CCOCC2)n1 [Example 78, 4-chloro-6-[1-(difluoromethyl)-4-[[2-(2-morpholinoethoxy)phenyl]methyl]pyrazol-3-yl]pyrimidin-2-amine] |
| 8.30 | CN1CCN(CCCOc2ccccc2Cc2cn(C(F)F)nc2-c2cc(Cl)nc(N)n2)CC1 [Example 79] |
| 7.92 | Nc1nc(Cl)cc(-c2nn(C(F)F)cc2Cc2ccccc2OCCN2CCCC2)n1 [Example 81] |
| ~6.00 | Nc1nc(Cl)cc(-c2n[nH]cc2Cc2ccccc2OCCN2CCOCC2)n1 [Example 83, 4-chloro-6-[4-[[2-(2-morpholinoethoxy)phenyl]methyl]-1H-pyrazol-3-yl]pyrimidin-2-amine] |
| 7.57 | CN(C)C1CCN(C(=O)COc2ccccc2Cc2cn(C(F)F)nc2-c2cc(Cl)nc(N)n2)CC1 [Example 85] |
| 8.52 | Nc1nc(Cl)cc(-c2nn(C(F)F)cc2Cc2ccccc2OCCN2CCC(O)(C(F)F)CC2)n1 [Example 86] |
| 7.92 | CN(C)C1CCN(CCOc2ccccc2Cc2cn(C(F)F)nc2-c2cc(Cl)nc(N)n2)CC1 [Example 87] |
| 8.30 | Cn1cc(Cc2ccccc2OCCN2CC3CC(C2)O3)c(-c2cc(Cl)nc(N)n2)n1 [Example 88, 4-chloro-6-[1-methyl-4-[[2-[2-(6-oxa-3-azabicyclo[3.1.1]heptan-3-yl)ethoxy]phenyl]methyl]pyrazol-3-yl]pyrimidin-2-amine] |
| 8.22 | Cn1cc(Cc2ccccc2OCCN2C[C@H]3C[C@@H]2CO3)c(-c2cc(Cl)nc(N)n2)n1 [Example 89] |

The next lines start with the compound.

| Compound | pIC50 |
| --- | --- |
| Cc1ccc(-c2cn(C)nc2-c2cc(Cl)nc(N)n2)s1 [Example 3] | 5.00 to 6.00 |
| CCn1cc(Cc2cccs2)c(-c2cc(Cl)nc(N)n2)n1 [Example 5] | 6.74 |
| Cn1cc(Cc2sccc2-c2ccccc2)c(-c2cc(Cl)nc(N)n2)n1 [Example 6] | 6.66 |
| Cn1cc(Cc2cccc(Oc3ccccc3)c2)c(-c2cc(Cl)nc(N)n2)n1 [Example 7] | 6.66 |
| Cn1cc(Cc2cccc(-c3ccccc3)c2)c(-c2cc(Cl)nc(N)n2)n1 [Example 8] | 6.85 |
| Cn1cc(Cc2nccs2)c(-c2cc(Cl)nc(N)n2)n1 [Example 21] | 6.59 |
| Nc1nc(Cl)cc(-c2nn(C(F)(F)F)cc2Cc2ccccc2)n1 [Example 22] | 6.80 |
| Cc1c(Cn2ccnn2)c(-c2cc(Cl)nc(N)n2)nn1C [Example 23] | 6.15 |
| Cn1cc(Cc2cscn2)c(-c2cc(Cl)nc(N)n2)n1 [Example 26] | ~6.00 |
| Cc1c(Cn2ccccc2=O)c(-c2cc(Cl)nc(N)n2)nn1C [Example 29] | ~6.00 |
| Cn1cc(Cc2cccc3c2OCCO3)c(-c2cc(Cl)nc(N)n2)n1 [Example 32] | 7.82 |
| Cn1nc(-c2cc(Cl)nc(N)n2)c(Cc2ccccc2)c1C(=O)OCc1ccccc1 [Example 35, benzyl 5-(2-amino-6-chloro-pyrimidin-4-yl)-4-benzyl-2-methyl-pyrazole-3-carboxylate] | 9.08 |
| Cn1ccnc1COC(=O)c1c(Cc2ccccc2)c(-c2cc(Cl)nc(N)n2)nn1C [Example 37] | 8.22 |
| Cn1nc(-c2cc(Cl)nc(N)n2)c(Cc2ccccc2)c1C(=O)OCC1COC1 [Example 39] | 8.42 |
| Cn1nc(-c2cc(Cl)nc(N)n2)c(Cc2ccccc2)c1C(=O)Oc1ccc(CO)cc1 [Example 40] | 8.82 |
| CN(C)CCOC(=O)c1c(Cc2ccccc2)c(-c2cc(Cl)nc(N)n2)nn1C [Example 41] | 8.10 |

| Compound | pIC50 |
| --- | --- |
| Cn1nc(-c2cc(Cl)nc(N)n2)c(Cc2ccccc2)c1C(=O)OCc1ccc(CN)cc1 [Example 42] | 8.46 |
| Cc1c(CC2CCC2)c(-c2cc(Cl)nc(N)n2)nn1C [Example 43] | 7.00 |
| Nc1nc(Cl)cc(-c2n[nH]cc2Cc2ccccc2)n1 [Example 44, 4-(4-benzyl-1H-pyrazol-3-yl)-6-chloro-pyrimidin-2-amine] | ~5.30 |
| CC(=O)OCc1c(Cc2ccccc2)c(-c2cc(Cl)nc(N)n2)nn1C [Example 50, [5-(2-amino-6-chloro-pyrimidin-4-yl)-4-benzyl-2-methyl-pyrazol-3-yl]methyl acetate] | 6.51 |
| Cn1nc(-c2cc(Cl)nc(N)n2)c(Cc2ccccc2)c1COC(=O)c1ccccc1 [Example 51] | 7.49 |
| Cn1cc(Cc2cccc(C(=O)OCc3ccnc(N)c3)c2)c(-c2cc(Cl)nc(N)n2)n1 [Example 63] | 9.34 |
| CC(=O)Oc1ccc(COC(=O)c2c(Cc3ccccc3)c(-c3cc(Cl)nc(N)n3)nn2C)cc1 [Example 66] | 7.59 |
| Cn1nc(-c2cc(Cl)nc(N)n2)c(Cc2ccccc2)c1C(=O)OCC(O)CO (stereo not drawn) [Example 67] | 7.70 |
| Cn1nc(-c2cc(Cl)nc(N)n2)c(Cc2ccccc2)c1C(=O)OCc1ccnc(N)c1 [Example 68] | 9.34 |
| Cn1nc(-c2cc(Cl)nc(N)n2)c(Cc2ccccc2)c1COCc1ccccc1 [Example 70] | 7.59 |
| Cn1cc(Cc2cccc(Oc3ccccc3)c2)c(-c2cc(Br)nc(N)n2)n1 [Example 71, 4-bromo-6-[1-methyl-4-[(3-phenoxyphenyl)methyl]pyrazol-3-yl]pyrimidin-2-amine] | ~6.00 |
| Cn1cc(Cc2cccc(Oc3ccccc3)c2)c(-c2cc(F)nc(N)n2)n1 [Example 72, fluoro-6-[1-methyl-4-[(3-phenoxyphenyl)methyl]pyrazol-3-yl]pyrimidin-2-amine] | ~6.00 |
| Cn1nc(-c2cc(Cl)nc(N)n2)c(Cc2ccccc2)c1C(=O)OCc1ccc(N)nc1 [Example 73] | ~6.00 |
| Cc1c(Cc2ncccn2)c(-c2cc(Cl)nc(N)n2)nn1C [Example 74] | ~6.00 |
| Nc1nc(Cl)cc(-c2nn(C(F)F)cc2Cc2c(F)cccc2OCCN2CCNC(=O)C2)n1 [Example 84] | 8.40 |
